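Five concentrations, 48 hours, 96-well plates. The concentration for 50% growth inhibition is given as GI50. TGI marks complete inhibition of growth.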
Key:
Experiment in all cases: growth of human tumour cells (NCI), 48 h
SK-OV-3 ovarian = tested on: SK-OV-3 ovarian
OVCAR-3 ovarian = tested on: OVCAR-3 ovarian
NCI-H460 lung = tested on: NCI-H460 lung
MDA-MB-435 = tested on: MDA-MB-435
SN12C renal = tested on: SN12C renal
NCI-H522 lung = tested on: NCI-H522 lung
NCI/ADR-RES ovarian = tested on: NCI/ADR-RES ovarian
786-0 renal = tested on: 786-0 renal
UO-31 renal = tested on: UO-31 renal
UACC-62 melanoma = tested on: UACC-62 melanoma
HOP-62 NSCLC = tested on: HOP-62 NSCLC
SK-MEL-5 melanoma = tested on: SK-MEL-5 melanoma
MCF7 breast = tested on: MCF7 breast
NCI-H226 lung = tested on: NCI-H226 lung
T-47D breast = tested on: T-47D breast
NCI-H322M lung = tested on: NCI-H322M lung
SF-268 CNS = tested on: SF-268 CNS
K-562 leukemia = tested on: K-562 leukemia
A549 NSCLC = tested on: A549 NSCLC
OVCAR-8 ovarian = tested on: OVCAR-8 ovarian
CCRF-CEM leukemia = tested on: CCRF-CEM leukemia
RXF 393 renal = tested on: RXF 393 renal
SNB-75 CNS = tested on: SNB-75 CNS
HT29 colon = tested on: HT29 colon
ACHN renal = tested on: ACHN renal
LOX IMVI melanoma = tested on: LOX IMVI melanoma
HCC-2998 colon = tested on: HCC-2998 colon
IGROV1 ovarian = tested on: IGROV1 ovarian
SNB-19 CNS = tested on: SNB-19 CNS
HOP-92 NSCLC = tested on: HOP-92 NSCLC
SR leukemia = tested on: SR leukemia
MOLT-4 leukemia = tested on: MOLT-4 leukemia
HL-60(TB) leukemia = tested on: HL-60(TB) leukemia
TK-10 renal = tested on: TK-10 renal
UACC-257 melanoma = tested on: UACC-257 melanoma
MDA-MB-231 breast = tested on: MDA-MB-231 breast
U251 CNS = tested on: U251 CNS
RPMI-8226 leukemia = tested on: RPMI-8226 leukemia
EKVX NSCLC = tested on: EKVX NSCLC
BT-549 breast = tested on: BT-549 breast
OVCAR-4 ovarian = tested on: OVCAR-4 ovarian
SW-620 colon = tested on: SW-620 colon
SF-539 CNS = tested on: SF-539 CNS
NCI-H23 lung = tested on: NCI-H23 lung
SK-MEL-2 melanoma = tested on: SK-MEL-2 melanoma
CAKI-1 renal = tested on: CAKI-1 renal
SK-MEL-28 melanoma = tested on: SK-MEL-28 melanoma
KM12 colon = tested on: KM12 colon
HCT-15 colon = tested on: HCT-15 colon
PC-3 prostate = tested on: PC-3 prostate
M14 melanoma = tested on: M14 melanoma
SF-295 CNS = tested on: SF-295 CNS
DU-145 prostate = tested on: DU-145 prostate
MALME-3M melanoma = tested on: MALME-3M melanoma
OVCAR-5 ovarian = tested on: OVCAR-5 ovarian

O=c1ccc(Oc2ccc([N+](=O)[O-])cc2[N+](=O)[O-])nn1-c1ccc([N+](=O)[O-])cc1[N+](=O)[O-]
GI50 (SK-OV-3 ovarian): 8.71 µM
TGI (SK-OV-3 ovarian): 22.2 µM
GI50 (OVCAR-3 ovarian): 1.69 µM
TGI (OVCAR-3 ovarian): 3.05 µM
GI50 (NCI-H460 lung): 3.61 µM
TGI (NCI-H460 lung): 13.4 µM
GI50 (MDA-MB-435): 1.72 µM
TGI (MDA-MB-435): 3.44 µM
GI50 (SN12C renal): 1.87 µM
TGI (SN12C renal): 3.66 µM
GI50 (NCI-H522 lung): 1.9 µM
TGI (NCI-H522 lung): 4.55 µM
GI50 (NCI/ADR-RES ovarian): 1.82 µM
TGI (NCI/ADR-RES ovarian): 3.46 µM
GI50 (786-0 renal): 1.81 µM
TGI (786-0 renal): 3.34 µM
GI50 (UO-31 renal): 1.43 µM
TGI (UO-31 renal): 2.87 µM
GI50 (UACC-62 melanoma): 1.71 µM
TGI (UACC-62 melanoma): 3.38 µM
GI50 (HOP-62 NSCLC): 1.59 µM
TGI (HOP-62 NSCLC): 3.37 µM
GI50 (SK-MEL-5 melanoma): 1.97 µM
TGI (SK-MEL-5 melanoma): 3.8 µM
GI50 (MCF7 breast): 1.63 µM
TGI (MCF7 breast): 3.88 µM
GI50 (NCI-H226 lung): 2.2 µM
TGI (NCI-H226 lung): 5.51 µM
GI50 (T-47D breast): 2.17 µM
TGI (T-47D breast): 5.77 µM
GI50 (NCI-H322M lung): 1.63 µM
TGI (NCI-H322M lung): 3.2 µM
GI50 (SF-268 CNS): 1.66 µM
TGI (SF-268 CNS): 3.29 µM
GI50 (K-562 leukemia): 2.62 µM
TGI (K-562 leukemia): 8.67 µM
GI50 (A549 NSCLC): 8.28 µM
TGI (A549 NSCLC): 25.7 µM
GI50 (OVCAR-8 ovarian): 1.91 µM
TGI (OVCAR-8 ovarian): 3.54 µM
GI50 (CCRF-CEM leukemia): 3.17 µM
TGI (CCRF-CEM leukemia): 9.89 µM
GI50 (RXF 393 renal): 1.88 µM
TGI (RXF 393 renal): 3.42 µM
GI50 (SNB-75 CNS): 1.5 µM
TGI (SNB-75 CNS): 3.31 µM
GI50 (HT29 colon): 2.25 µM
TGI (HT29 colon): 4.77 µM
GI50 (ACHN renal): 1.71 µM
TGI (ACHN renal): 3.19 µM
GI50 (LOX IMVI melanoma): 1.51 µM
TGI (LOX IMVI melanoma): 3.17 µM
GI50 (HCC-2998 colon): 1.82 µM
TGI (HCC-2998 colon): 3.39 µM
GI50 (IGROV1 ovarian): 1.94 µM
TGI (IGROV1 ovarian): 4.05 µM
GI50 (SNB-19 CNS): 1.9 µM
TGI (SNB-19 CNS): 3.5 µM
GI50 (HOP-92 NSCLC): 1.89 µM
TGI (HOP-92 NSCLC): 3.74 µM
GI50 (SR leukemia): 2.01 µM
TGI (SR leukemia): 6.6 µM
GI50 (MOLT-4 leukemia): 2.54 µM
TGI (MOLT-4 leukemia): 6.99 µM
GI50 (HL-60(TB) leukemia): 1.43 µM
TGI (HL-60(TB) leukemia): 4.29 µM
GI50 (TK-10 renal): 1.6 µM
TGI (TK-10 renal): 3.07 µM
GI50 (UACC-257 melanoma): 1.83 µM
TGI (UACC-257 melanoma): 3.59 µM
GI50 (MDA-MB-231 breast): 1.9 µM
TGI (MDA-MB-231 breast): 3.62 µM
GI50 (U251 CNS): 1.82 µM
TGI (U251 CNS): 3.44 µM
GI50 (RPMI-8226 leukemia): 2.36 µM
TGI (RPMI-8226 leukemia): 6.6 µM
GI50 (EKVX NSCLC): 1.68 µM
TGI (EKVX NSCLC): 3.33 µM
GI50 (BT-549 breast): 1.57 µM
TGI (BT-549 breast): 2.99 µM
GI50 (OVCAR-4 ovarian): 1.64 µM
TGI (OVCAR-4 ovarian): 3.08 µM
GI50 (SW-620 colon): 2.35 µM
TGI (SW-620 colon): 6.35 µM
GI50 (SF-539 CNS): 1.72 µM
TGI (SF-539 CNS): 3.15 µM
GI50 (NCI-H23 lung): 1.8 µM
TGI (NCI-H23 lung): 3.6 µM
GI50 (SK-MEL-2 melanoma): 2.34 µM
TGI (SK-MEL-2 melanoma): 6.39 µM
GI50 (CAKI-1 renal): 1.61 µM
TGI (CAKI-1 renal): 2.97 µM
GI50 (SK-MEL-28 melanoma): 1.88 µM
TGI (SK-MEL-28 melanoma): 3.52 µM
GI50 (KM12 colon): 10.3 µM
TGI (KM12 colon): 24 µM
GI50 (HCT-15 colon): 1.63 µM
TGI (HCT-15 colon): 3.18 µM
GI50 (PC-3 prostate): 2.25 µM
TGI (PC-3 prostate): 4.6 µM
GI50 (M14 melanoma): 1.71 µM
TGI (M14 melanoma): 3.43 µM
GI50 (SF-295 CNS): 2.93 µM
TGI (SF-295 CNS): 10.3 µM
GI50 (DU-145 prostate): 1.71 µM
TGI (DU-145 prostate): 3.1 µM
GI50 (MALME-3M melanoma): 1.68 µM
TGI (MALME-3M melanoma): 3.45 µM
GI50 (OVCAR-5 ovarian): 1.87 µM
TGI (OVCAR-5 ovarian): 3.87 µM
